Measurements from PMC5837957 (European journal of medicinal chemistry, 2018).
Entries after “also recorded” stand apart in the source; their conditions may differ.

Experiments:
[1] = tested on: H3K4me2 at the promoter of the IGFBP2 gene in NCI-H526 cells; assay: ChIP-qPCR of H3K4me2 at IGFBP2 promoter; assay type: cell-based; settings: 100 µM, 48 h
[2] = tested on: H3K4me2 at the promoter of the FEZ1 gene in NCI-H526 cells; assay: ChIP-qPCR of H3K4me2 at FEZ1 promoter; assay type: cell-based; settings: 100 µM, 48 h

CSCC[C@H](NC(=O)[C@@H](NC(=O)[C@H](CCCNC(=N)N)NC(=O)[C@H](C)N)[C@@H](C)O)C(=O)N[C@H]1CCCCNC(=O)CC[C@@H](C(=O)N[C@@H](C)C(=O)NCC(=O)NCC(=O)N[C@@H](CCCCN)C(=O)N[C@@H](C)C(=O)N2CCC[C@H]2C(=O)N[C@@H](CCCNC(=N)N)C(=O)N[C@@H](CCCCN)C(=O)N[C@@H](CCC(N)=O)C(=O)N[C@@H](CC(C)C)C(=O)N[C@@H](C)C(N)=O)NC(=O)[C@H](CCCCN)NC(=O)[C@H](CCCNC(=N)N)NC(=O)[C@H](C)NC(=O)[C@H]([C@@H](C)O)NC1=O [Compound 16]
H3K4me2 levels at the IGFBP2 promoter [1]: smallest change; also recorded: increases H3K4me2 marks | H3K4me2 levels at the FEZ1 promoter [2]: smallest change; also recorded: increases H3K4me2 marks
